The list is not random: actives were taken first. Their share in the collection is about 16%.
TDP1 block – TDP1 (human) enzyme inhibition. Q9NUW8. recombinant TDP1, AlphaScreen DNA substrate cleavage. Potency, µM (titrated, usually from 130 µM), hits mostly inhibitors. 350,000 tested, 0.28% active. AID 485290; also: nearly all actives have a fitted effect of over 40% in size
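Compounds were preincubated with Tdp1 (1 nM final) for 15 min at room temperature before substrate (15 nM final) started a 5 min reaction; beads (10 ug/ml final) were then added for 10 min before AlphaScreen detection.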
uPA surface inh – cell surface uPA generation inhibition. 330,000 tested, 0.31% active. cell surface uPA generation assay, qHTS. Potency, µM (top dose mostly 38.3 µM), hits mostly inhibitors; active = well fitted inhibition curve with a large enough effect; inconclusive = small, poorly fitted or top-dose-only effect; inactive = no such curve, though single readings can be large or run the other way; tested in mouse RAW 264.7 cells; also: nearly all actives have a fitted effect of over 55% in size
miR-21 reporter – raises the signal of a miR-21 reporter | HeLa miR-21 FLuc reporter, luciferase, 48 h | Potency, µM (highest dose often 38.3 µM) | 340,000 tested, under 10 active | AID 2288; active = well fitted rising curve with a large enough effect; inconclusive = small, poorly fitted or top-dose-only effect; inactive = no such curve, though single readings can be large or run the other way;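 note: miR-21 action dims this reporter so a rising signal means less miR-21 action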
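Compounds were titrated across several concentrations (up to approximately 40 uM) and incubated 48 hours with HeLa miR-21-FLuc reporter cells (miR-21 target sequence downstream of FLuc, endogenous miR-21). Readout was firefly luciferase luminescence after lytic detection reagent.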
DT40 TDP1 CPT – growth inhibition of DT40 Tdp1-/-;hTDP1 cells with camptothecin (screen for TDP1 inhibitors) | chicken DT40 Tdp1-/-;hTDP1 cells + 20 nM CPT, ATP luminescence, 48 h | Potency, µM (titrated, usually from 46.2 µM), actives largely listed as inhibitors | 420,000 tested, 12% active | AID 686979; also: nearly all actives have a fitted effect of over 55% in size
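Chicken DT40 Tdp1-/- cells complemented with human TDP1, 400 cells/well, exposed to compounds plus 20 nM camptothecin for at least 48 h at 37 C; viability read as ATP content by CellTiter-Glo luminescence.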
DT40 TDP1 no CPT – qHTS for Inhibitors of human tyrosyl-DNA phosphodiesterase 1 (TDP1): qHTS in cells in absence of CPT; DT40 Tdp1-/- hTDP1 cells, no CPT, ATP luminescence, 48 h; Potency, µM (top dose mostly 46.2 µM), hits mostly inhibitors; 420,000 tested, 15% active; AID 686978, 2013; also: nearly all actives have a fitted effect of over 55% in size
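Camptothecin absent (DMSO only). Human TDP1-complemented DT40 knockout cells, 400 cells/well, 37 °C for minimum 48 hr; ATP measured via CellTiter-Glo, 30 min dark incubation, luminescence.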
Each line names hits and unclear results; the compound was inactive in the other large screens. Unless noted, calls follow the shape of the dose curve; as a rule, active = well fitted curve in the direction sought with a large enough effect; inconclusive = small, poorly fitted or top-dose-only effect, or another doubt; inactive = no such curve, though single readings can be large; an effect the other way counts as inactive or inconclusive.

O=S1(=O)CCO[C@H]2Cc3ccccc3[C@H]2N1Cc1ccc(Cl)cc1	DT40 TDP1 CPT inconclusive, DT40 TDP1 no CPT inconclusive (no result: TDP1 block)
Cc1ccccc1CN1[C@@H]2c3ccccc3C[C@@H]2OCCS1(=O)=O	DT40 TDP1 CPT inconclusive, DT40 TDP1 no CPT 15.8µM (no result: TDP1 block)
Cc1ccc(N(Cc2ccccc2)C(=O)Cc2ccc(S(=O)(=O)N3CCOCC3)s2)cc1	DT40 TDP1 CPT inconclusive, DT40 TDP1 no CPT inconclusive (no result: miR-21 reporter)
C=CCN(Cc1ccc(Cl)s1)C(=O)c1cc(S(=O)(=O)N2CCOCC2)ccc1F	DT40 TDP1 CPT 18.4µM, DT40 TDP1 no CPT 13µM (no result: miR-21 reporter)
COc1ccc(C(=O)NCc2ccc(C)cc2)cc1S(=O)(=O)N1CCOCC1	none (no result: TDP1 block, uPA surface inh, miR-21 reporter)
Cc1ccc(CSCCNC(=O)c2ccc(Cl)c(S(=O)(=O)N3CCOCC3)c2)cc1	DT40 TDP1 CPT inconclusive, DT40 TDP1 no CPT 18.4µM
O=C(NCCSCc1ccccc1)c1cc(S(=O)(=O)N2CCOCC2)ccc1F	DT40 TDP1 CPT 11.6µM, DT40 TDP1 no CPT inconclusive
O=C(c1cc(S(=O)(=O)N2CCOCC2)ccc1F)N(Cc1nnc(-c2ccccc2Cl)o1)C1CC1	DT40 TDP1 CPT inconclusive, DT40 TDP1 no CPT inconclusive (no result: miR-21 reporter)
Cc1ccc(N(Cc2ccccc2)C(=O)c2cc(S(=O)(=O)N3CCOCC3)ccc2F)cc1	DT40 TDP1 CPT 18.4µM, DT40 TDP1 no CPT 7.31µM (no result: miR-21 reporter)
CCCCSCCCNC(=O)CN1C(=O)COc2ccc(S(=O)(=O)N3CCCC3)cc21	DT40 TDP1 CPT inconclusive, DT40 TDP1 no CPT inconclusive (no result: uPA surface inh)
CCN1CCN(S(=O)(=O)c2cccc(S(=O)(=O)N3CCOCC3)c2)CC1	none
CC(=O)Nc1c(C(=O)N2CCCCCC2)cnn1-c1ccccc1	none
COc1ccc(NC(=O)c2ccco2)cc1NC(=O)c1ccccc1[N+](=O)[O-]	none
COCCNC(=O)Cn1nc(-c2ccc(C)cc2)c2ccccc2c1=O	none (no result: TDP1 block)
CN(Cc1ccccc1)S(=O)(=O)c1ccc(Cl)c(C(=O)O)c1	none
CN(Cc1cccc(Cl)c1Cl)C(=O)c1cc(S(=O)(=O)N2CCOCC2)ccc1F	DT40 TDP1 CPT 16.4µM, DT40 TDP1 no CPT 20.6µM (no result: miR-21 reporter)
Cc1ccc(N(Cc2ccccc2)C(=O)c2cc(S(=O)(=O)N3CCOCC3)ccc2Cl)cc1	DT40 TDP1 CPT 11.6µM, DT40 TDP1 no CPT 7.31µM (no result: miR-21 reporter)
CN(Cc1ccccc1)S(=O)(=O)c1ccc(Cl)c(C(=O)N2CCOCC2)c1	DT40 TDP1 CPT 18.4µM, DT40 TDP1 no CPT 20.6µM (no result: TDP1 block, uPA surface inh, miR-21 reporter)
Cc1ccc(N(Cc2ccccc2)C(=O)c2ccc(C)c(S(=O)(=O)N3CCOCC3)c2)cc1	DT40 TDP1 CPT inconclusive, DT40 TDP1 no CPT inconclusive (no result: miR-21 reporter)
Cc1cccc(N(Cc2ccccc2)C(=O)c2cc(S(=O)(=O)N3CCOCC3)ccc2Cl)c1	DT40 TDP1 CPT 14.6µM, DT40 TDP1 no CPT 14.6µM (no result: miR-21 reporter)
O=C(OCC(=O)N1CCCC1=O)c1nc(Cl)c(Cl)c(Cl)c1Cl	TDP1 block 44.7µM, uPA surface inh inconclusive
COc1ccc2[nH]c(=O)c(-c3noc(-c4ccccc4)n3)cc2c1	DT40 TDP1 CPT 20.6µM, DT40 TDP1 no CPT 18.4µM
COc1ccc2[nH]c(=O)c(-c3nnn(-c4ccc(Cl)nc4)n3)cc2c1	DT40 TDP1 CPT 11.6µM, DT40 TDP1 no CPT inconclusive (no result: TDP1 block, miR-21 reporter)
COc1ccc2[nH]c(=O)c(-c3nnn(-c4ccccc4)n3)cc2c1	DT40 TDP1 CPT inconclusive, DT40 TDP1 no CPT inconclusive
COc1ccc2[nH]c(=O)c(-c3nnn(-c4ccc(F)cc4)n3)cc2c1	DT40 TDP1 CPT 4.61µM, DT40 TDP1 no CPT 16.4µM (no result: TDP1 block, miR-21 reporter)
O=c1[nH]c2ccccc2cc1-c1nnn(-c2ccccc2)n1	DT40 TDP1 CPT 16.4µM, DT40 TDP1 no CPT inconclusive (no result: TDP1 block, miR-21 reporter)
Cc1ccccc1C(=O)NC=C1C(=O)OC(C)(C)OC1=O	DT40 TDP1 CPT inconclusive
Cc1ccc(O)c(NC(=S)NC(=O)c2ccccc2Cl)c1	DT40 TDP1 CPT inconclusive, DT40 TDP1 no CPT inconclusive
Cc1ccc(-c2nnc3c(C(F)(F)F)nc4ccccc4n23)cc1	DT40 TDP1 CPT 20.6µM, DT40 TDP1 no CPT 20.6µM
FC(F)(F)c1nc2ccccc2n2c(-c3ccc(Cl)cc3)nnc12	DT40 TDP1 CPT 7.31µM, DT40 TDP1 no CPT 11.6µM
On1c(-c2ccc(Cl)cc2)nc2ccccc21	DT40 TDP1 no CPT inconclusive
Cc1ccc(-c2nc3ccccc3n3c(C)nnc23)cc1	none (no result: uPA surface inh, DT40 TDP1 CPT, DT40 TDP1 no CPT)
COc1ccc(-c2cc(C(F)(F)F)nc(S(=O)(=O)CCCC(=O)Nc3cc(C)on3)n2)cc1OC	miR-21 reporter inconclusive, DT40 TDP1 CPT 0.731µM, DT40 TDP1 no CPT 1.16µM

Bioassay records deposited in PubChem BioAssay by National Center for Advancing Translational Sciences (NCATS).
